# Data taken from paper PMC10683761 (ACS Sensors, 2023).
# Experiments:
# μMASS^1 [1] = type: cell-based, rat
# μMASS^1 [2] = type: cell-based, rat; details: antagonist applied after agonist
SMILES,activation of μMASS^1 compared to Met-enk (μMASS^1 [1]),effect on μMASS^1 fluorescence signal (μMASS^1 [2])
CN1CC[C@]23c4c5ccc(O)c4O[C@H]2[C@@H](O)C=C[C@H]3[C@H]1C5 [morphine],26.4 ± 3.64%,
C=CCN1CC[C@]23c4c5ccc(O)c4O[C@H]2C(=O)CC[C@@]3(O)[C@H]1C5 [naloxone],,abolished the fluorescence signal; also recorded: reversible

# Entries after “also recorded” stand apart in the source; their conditions may differ.
